# Test results: patent publication US5385831A, “Method for producing a mammalian G protein coupled glutamate receptor” (priority 1993, dated 1995)
# By UniProt entry, the sequences of proteins in these tests, tags left out. Residues count along the entry.
# UniProt P23385, 19-1199: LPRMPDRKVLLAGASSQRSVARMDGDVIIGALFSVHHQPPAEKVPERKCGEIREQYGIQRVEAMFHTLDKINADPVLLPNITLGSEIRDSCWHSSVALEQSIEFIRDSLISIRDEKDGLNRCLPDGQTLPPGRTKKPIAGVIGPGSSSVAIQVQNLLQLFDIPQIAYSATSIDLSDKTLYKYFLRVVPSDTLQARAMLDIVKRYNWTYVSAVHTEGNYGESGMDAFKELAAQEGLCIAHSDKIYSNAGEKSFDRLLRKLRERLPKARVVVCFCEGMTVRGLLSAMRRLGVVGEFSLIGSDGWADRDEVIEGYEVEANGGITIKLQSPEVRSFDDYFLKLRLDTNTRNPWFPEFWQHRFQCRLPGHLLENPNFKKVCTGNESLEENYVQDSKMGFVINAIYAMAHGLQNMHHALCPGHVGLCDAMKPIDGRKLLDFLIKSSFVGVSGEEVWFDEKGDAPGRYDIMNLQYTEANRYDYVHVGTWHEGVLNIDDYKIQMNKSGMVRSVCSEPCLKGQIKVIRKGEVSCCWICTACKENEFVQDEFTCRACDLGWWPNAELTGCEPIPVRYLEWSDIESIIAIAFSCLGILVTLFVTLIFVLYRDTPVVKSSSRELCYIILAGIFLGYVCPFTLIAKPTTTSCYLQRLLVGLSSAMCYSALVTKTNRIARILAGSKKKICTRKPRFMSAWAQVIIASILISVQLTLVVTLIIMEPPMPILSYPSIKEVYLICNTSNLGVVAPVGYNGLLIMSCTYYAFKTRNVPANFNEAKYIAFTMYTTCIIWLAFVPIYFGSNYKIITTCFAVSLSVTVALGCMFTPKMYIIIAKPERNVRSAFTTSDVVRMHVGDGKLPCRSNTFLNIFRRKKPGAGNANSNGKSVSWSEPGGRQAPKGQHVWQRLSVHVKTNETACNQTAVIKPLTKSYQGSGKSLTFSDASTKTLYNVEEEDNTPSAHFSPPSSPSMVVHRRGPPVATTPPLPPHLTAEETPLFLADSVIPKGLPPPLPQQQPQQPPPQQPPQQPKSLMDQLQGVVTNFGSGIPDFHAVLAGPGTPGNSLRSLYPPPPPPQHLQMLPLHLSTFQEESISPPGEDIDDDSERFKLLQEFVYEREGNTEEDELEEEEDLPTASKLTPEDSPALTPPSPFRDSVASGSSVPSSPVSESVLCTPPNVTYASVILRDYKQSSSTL
# pEC50: −log10 of the molar value.
# Target: GluG R encoded by clone 45-A (Rattus norvegicus, UniProt P23385)
# Experiment: cell-based
smiles,measurement,value
"N[C@@H](Cn1oc(=O)[nH]c1=O)C(=O)O [Quisqualic acid, quisqualic acid]",pEC50,6.17
